pIC50: −log10 of the molar value.
Target: T1, Serine/threonine-protein kinase PLK4 (Homo sapiens, UniProt O00444)
T1 sequence (O00444 whole entry): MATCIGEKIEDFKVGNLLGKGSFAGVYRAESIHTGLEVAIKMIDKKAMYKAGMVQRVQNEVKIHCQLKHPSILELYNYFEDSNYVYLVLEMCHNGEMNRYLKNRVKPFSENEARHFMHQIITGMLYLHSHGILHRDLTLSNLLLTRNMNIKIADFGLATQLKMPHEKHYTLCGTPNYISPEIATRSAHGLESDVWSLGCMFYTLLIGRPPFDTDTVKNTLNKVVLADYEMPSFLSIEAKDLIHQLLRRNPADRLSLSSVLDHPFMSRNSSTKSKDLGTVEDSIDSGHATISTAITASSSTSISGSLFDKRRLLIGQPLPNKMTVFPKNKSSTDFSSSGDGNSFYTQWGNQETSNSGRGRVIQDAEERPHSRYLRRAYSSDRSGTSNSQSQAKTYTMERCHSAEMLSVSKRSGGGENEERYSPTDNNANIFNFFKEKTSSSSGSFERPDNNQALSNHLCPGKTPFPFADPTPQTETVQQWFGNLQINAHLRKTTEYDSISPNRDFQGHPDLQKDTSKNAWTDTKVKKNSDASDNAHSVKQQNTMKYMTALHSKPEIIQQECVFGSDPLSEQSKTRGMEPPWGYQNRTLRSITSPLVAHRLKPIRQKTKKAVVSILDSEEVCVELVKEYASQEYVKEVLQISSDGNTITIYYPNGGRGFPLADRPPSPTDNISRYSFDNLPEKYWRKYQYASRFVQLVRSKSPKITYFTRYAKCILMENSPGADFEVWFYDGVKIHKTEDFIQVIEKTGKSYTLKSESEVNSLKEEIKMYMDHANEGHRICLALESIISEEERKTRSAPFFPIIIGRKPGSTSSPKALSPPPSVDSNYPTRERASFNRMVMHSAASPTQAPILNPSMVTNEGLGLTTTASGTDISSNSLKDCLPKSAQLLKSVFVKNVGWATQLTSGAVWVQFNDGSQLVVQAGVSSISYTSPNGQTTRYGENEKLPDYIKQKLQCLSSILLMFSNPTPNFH
Test: Inhibition of PLK4 (unknown origin)

pIC50	SMILES
8.77	COc1ccc2c(c1)[C@]1(C[C@H]1c1ccc3c(-c4ccc(N5CCC(O)CC5)nc4)n[nH]c3c1)C(=O)N2 (racemic)
8.34	COc1ccc2c(c1)[C@]1(C[C@H]1c1ccc3c(-c4ccc(N5CCOCC5)nc4)n[nH]c3c1)C(=O)N2 (racemic)
